Experimental data taken from ChEMBL document CHEMBL1154606, “Identification of a critical residue in the transmembrane domain 2 of tachykinin neurokinin 3 receptor affecting the dissociation kinetics and antagonism mode of osanetant (SR 142801) and piperidine-based structures” (J Med Chem, 2009).

The chains behind the UniProt entries cited, without tags or fusion partners.
UniProt P29371, whole entry: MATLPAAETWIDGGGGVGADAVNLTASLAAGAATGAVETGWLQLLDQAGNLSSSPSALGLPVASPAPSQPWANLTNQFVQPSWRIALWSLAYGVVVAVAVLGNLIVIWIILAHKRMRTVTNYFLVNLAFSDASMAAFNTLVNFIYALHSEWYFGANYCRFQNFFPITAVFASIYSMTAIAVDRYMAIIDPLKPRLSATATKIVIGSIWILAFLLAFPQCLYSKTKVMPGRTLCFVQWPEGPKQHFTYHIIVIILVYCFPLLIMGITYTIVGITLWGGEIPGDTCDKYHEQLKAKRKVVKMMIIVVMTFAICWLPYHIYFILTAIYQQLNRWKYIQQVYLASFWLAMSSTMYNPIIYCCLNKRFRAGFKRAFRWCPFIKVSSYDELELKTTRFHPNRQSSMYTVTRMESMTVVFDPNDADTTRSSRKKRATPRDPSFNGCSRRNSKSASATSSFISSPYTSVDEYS
UniProt P30098, whole entry, looked up: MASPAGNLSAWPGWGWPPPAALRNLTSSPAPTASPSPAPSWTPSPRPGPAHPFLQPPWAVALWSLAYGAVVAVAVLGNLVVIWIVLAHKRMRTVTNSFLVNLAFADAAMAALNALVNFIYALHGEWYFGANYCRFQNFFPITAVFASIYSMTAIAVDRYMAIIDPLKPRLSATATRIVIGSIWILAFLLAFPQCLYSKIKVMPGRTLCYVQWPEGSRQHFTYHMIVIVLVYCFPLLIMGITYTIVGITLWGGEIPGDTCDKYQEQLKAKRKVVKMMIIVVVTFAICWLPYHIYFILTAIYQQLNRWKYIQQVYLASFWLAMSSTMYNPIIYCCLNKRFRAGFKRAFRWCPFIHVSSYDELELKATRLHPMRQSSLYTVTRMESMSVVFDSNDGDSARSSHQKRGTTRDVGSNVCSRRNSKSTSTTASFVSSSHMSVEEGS

Experiments:
Neuromedin-K receptor [1] = target: Neuromedin-K receptor (Homo sapiens, UniProt P29371); experiment: Antagonist activity at wild type human NK3 receptor expressed in HEK293 cells assessed as inhibition of [MePhe7]NKB-induced accumulation of [3H]inositol phosphate; assay type: functional, cell-based; conditions: read-out: pA2 (converted)
In short: (§1)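 HEK293 cells transiently transfected with NK3 receptor, labeled with myo-[³H]-inositol and assayed 48 h post-transfection in HBSS/HEPES pH 7.4 with 8 mM LiCl. Fixed antagonist concentrations were preincubated 20 min at 37 °C, then [MePhe⁷]NKB (0.1 nM–10 μM) was added for 45 min at 37 °C. [³H]IP was captured on yttrium silicate beads. Agonist EC50 shifts gave dose ratios for Schild regression. Six curves from three transfections.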

Neuromedin-K receptor [2] = target: T1, Neuromedin-K receptor (Cavia porcellus, UniProt P30098); experiment: Displacement of [3H]osanetant from guinea pig recombinant NK3 receptor A1142.58T expressed in HEK293 cells; assay type: cell-based
In short: (§2)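 Membranes from transiently transfected HEK293 cells (5 μg protein/well) in 50 mM Tris-HCl, 4 mM MnCl2, 1 μM phosphoramidon, 0.1% BSA, pH 7.4. Incubated with [³H]SR 142801 at its Kd and 10 inhibitor concentrations (0.0003–10 μM) for 75 min at RT. Nonspecific binding defined with 10 μM competitor. Filtered on GF/C. Ki by Cheng-Prusoff; three experiments in duplicate.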

Neuromedin-K receptor [3] = target: T1, Neuromedin-K receptor; experiment: Displacement of [3H]osanetant from guinea pig recombinant NK3 receptor expressed in HEK293 cells; assay type: cell-based; in short: as §2
Neuromedin-K receptor [4] = target: T1, Neuromedin-K receptor; experiment: Antagonist activity at […] guinea pig NK3 receptor A1142.58T mutant expressed in HEK293 cells assessed as inhibition of [MePhe7]NKB-induced accumulation of [3H]inositol phosphate; assay type: functional, cell-based; in short: as §1
Neuromedin-K receptor [5] = target: T1, Neuromedin-K receptor; experiment: Antagonist activity at wild type guinea pig NK3 receptor expressed in HEK293 cells assessed as inhibition of [MePhe7]NKB-induced accumulation of [3H]inositol phosphate; assay type: functional, cell-based; conditions: read-out: pA2 (converted); in short: as §1

Kb (Neuromedin-K receptor [1]): 5.75 nM | Ki (Neuromedin-K receptor [2]): 3.8 nM | Ki (Neuromedin-K receptor [3]): 5 nM | pA2 (Neuromedin-K receptor [4]): 7.91 | Kb (Neuromedin-K receptor [5]): 15.5 nM
SMILES: CC[C@H](NC(=O)c1c(O)c(-c2ccccc2)nc2ccccc12)c1ccccc1 [TALNETANT]
